Here are results for one substance from PMC12723675, “Evaluating BindCraft for Generative Design of High-Affinity Peptides” (ACS Chemical Biology, 2025).

The experiment deals with stapled Myc_B1 peptide. The experiment can be described thus: BLI; full binding curves: biotinylated peptide on streptavidin biosensors, WDR5 in solution (10, 2, 0.4, 0.08 μM for Myc-site peptides; 2.5, 0.5, 0.1, 0.2 μM as printed for stapled Myc_B1); KD the average from four concentrations, 1:1 kinetic model; kinetic buffer, RT.

Take “truncated WDR5 (amino acids 22–334) (from UniProt P61964 22-334) (domain or fragment)”: the Kd came out at 0.039 µM and the fold improvement of KD over the unstapled parent peptide came out at 6 fold.
